Data on 2 substances can be found in patent EP1935986B1, “Luminogenic and fluorogenic compounds and methods to detect molecules or conditions” (priority 2005, dated 2006).

Amino acid sequences for entries named in this document (tags omitted). Residues count along the entry.
UniProt P05177, 2-516 limits assumed: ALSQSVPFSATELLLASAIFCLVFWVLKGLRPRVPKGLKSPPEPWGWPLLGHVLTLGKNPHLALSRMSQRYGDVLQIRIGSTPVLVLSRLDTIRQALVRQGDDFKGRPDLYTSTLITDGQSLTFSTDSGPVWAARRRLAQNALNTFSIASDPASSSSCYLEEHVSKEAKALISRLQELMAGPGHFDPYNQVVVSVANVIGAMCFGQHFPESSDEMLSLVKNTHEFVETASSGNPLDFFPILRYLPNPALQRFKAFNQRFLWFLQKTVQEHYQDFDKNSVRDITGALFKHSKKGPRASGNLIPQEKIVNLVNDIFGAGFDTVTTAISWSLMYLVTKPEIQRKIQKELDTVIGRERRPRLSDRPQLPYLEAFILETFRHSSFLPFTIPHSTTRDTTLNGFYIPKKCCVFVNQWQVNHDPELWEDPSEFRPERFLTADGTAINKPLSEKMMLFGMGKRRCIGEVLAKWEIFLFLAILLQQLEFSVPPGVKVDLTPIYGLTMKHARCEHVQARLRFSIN

The subject of data set [1] is panel of recombinant human P450s. The experiment in a line: Two-step luminescent P450 screen of luciferin derivatives, whole panel incl. HLM. It is filed as biochemical. The settings on record: 50 µM substrate; result in words. The protocol:
A number of luciferin derivatives useful to detect P450 enzymes in a two step format were prepared: A, B and C ring modifications on (4S)-4,5-dihydro-2-(6-hydroxybenzothiazolyl)-4-thiazolecarboxylic acid (D-luciferin), and A ring modifications on (4S)-4,5-dihydro-2-(6-aminobenzothiazolyl)-4-thiazolecarboxylic acid (aminoluciferin). […] In addition, it was also of interest to identify substrates with improved selectivity for single P450 enzymes. As described below, in addition to new P450 substrates, luciferin esters were identified that are luminogenic substrates for carboxylesterases. Luciferin derivatives were tested as substrates for each of a panel of cytochrome P450 enzymes. Derivatives useful as P450 substrates may be employed in assays to detect inhibitors for particular P450 enzymes (see Figures 17-18).
P450s are Supersomes™ purchased from Discovery Labware (BD/Gentest). […] HLM is human liver microsomes.
1X substrate concentration: 50 µM.

A further data set addresses CYP1A2 (Homo sapiens, UniProt P05177). Put plainly: Two-step luminescent P450 screen of luciferin derivatives. The settings on record: 50 µM substrate, 1 pmole P450; result in words.

Turning to Luciferin 6-isobutylcarbonate, in the data set on luciferase, the “background luminescence (minus P450 control samples)” value is listed as “large background signal”. The “luminescent signals with the panel of P450 enzymes” value in data set [1] is on record as “non-selective”. For the substance luciferin-6-methylether-methoxylamide, the “P450 activity / selectivity with the derivative as substrate” value on CYP1A2 is given as “good selectivity”.
